Values of other authors in patent US12036548B2, “Organs-on-chips as a platform for epigenetics discovery” (EMULATE, INC., priority 2018, dated 2024).

Settings: inhalation; Costa et al., 1982

Substance: radioiodine
- fraction breathed in that is absorbed into the blood in the lungs: about 55%
